Laboratory results from US20120129870A1, “PIPERAZINYL DERIVATIVES USEFUL AS MODULATORS OF THE NEUROPEPTIDE Y2 RECEPTOR” (priority 2007, published 2012).

Amino acid sequences for entries named in this document (tags omitted).
UniProt P49146, whole entry: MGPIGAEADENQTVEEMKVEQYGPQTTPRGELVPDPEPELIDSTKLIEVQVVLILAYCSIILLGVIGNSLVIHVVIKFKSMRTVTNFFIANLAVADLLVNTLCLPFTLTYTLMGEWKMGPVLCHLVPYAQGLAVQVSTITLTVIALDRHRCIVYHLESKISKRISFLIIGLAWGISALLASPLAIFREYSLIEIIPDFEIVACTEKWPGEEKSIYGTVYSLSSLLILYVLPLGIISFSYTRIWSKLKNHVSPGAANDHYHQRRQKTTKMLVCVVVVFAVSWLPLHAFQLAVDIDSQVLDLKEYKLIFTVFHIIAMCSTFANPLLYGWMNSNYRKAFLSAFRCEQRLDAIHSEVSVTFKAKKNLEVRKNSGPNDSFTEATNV

Target: NPY Y2 receptor (Homo sapiens, UniProt P49146)
Assay: Neuropeptide Y2 radioligand binding assay ([125I]PYY, KAN-Ts membranes)
Settings: KAN-Ts membranes endogenously expressing Y2, [125I]PYY (80 pM), 1 h at rt

Work on `CCC(CC)C(=O)Nc1ccc(N2CCN(C(C#N)c3ccco3)CC2)c(F)c1` (stereo not shown) yielded an IC50 greater than 10 µM.
